{"source": "paper PMC2010280", "about": "(British Journal of Cancer, 1980)", "settings": "radioimmunoassay", "from_the_text": "MATERIALS AND METHODS Mice.-6-8-week-old male DBA/2 mice weighing 20-25 g were purchased from the Jackson Laboratory, Bar Harbor, Maine. They were maintained on normal laboratory chow and acid water ad. lib. Mouse leukaemia.-P388 lymphocytic leu- kaemia was supplied by Dr Daniel Griswold, Southern Research Institute, Birmingham, Alabama, and serially transplanted as ain ascites tumour at weekly intervals ([…] every 7 days in McCoy's 5a medium. Gibco, Grant Island, NY). […] Ill addition to an un- treated control group, 5 animals were implanted with minipumps containing 0.900 NaCl. Seven days after cell injection, the mice of the untreated control and treated groups were killed, femurs isolated, and marrow cells washed out with McCoy's 5a medium. Appro- priate dilutions of the leukaemic femoral marrow cells were injected i.v. into groups of 10 DBA/2 mice. Eight days later, the recipient mice were killed, spleens removed and fixed in Bouin's solution. The number of surface nacroscopic, leukaemic colony-forming units (LCFU-S) were counted with a dissecting microscope, and the fraction of surviving LCFU per femur determined. Pharmacokinetic studies.-On Day 0, 106 P388 ascites cells were injected i.v. into groups of 30 DBA/2 mice. […] For the C.i.p. group, blood samples from at least 3 mice were col- lected in heparinized tubes by heart puncture every day for 6 days. […] At least 3 mice were killed at each sampling time. Blood samples were centrifuged at 2,000 rev/min and 4?C for 10 min and the plasmas separated and immediately stored at -20?C. […] Data analysis-Statistical analysis of the differences betwNeen LCFU dose-response (i.e., drug dose vs fraction of CFU surviving per femur) curves for the two different treat- ments used the analysis of covariance method (Snedecor & Cochran, 1979). […] I. Intravenous administration. Cancer Chemother. Pharmacol., 1, 177. […] II. Intra- cavitary administration. Cancer Chemother. Pharmacol., 2, 127. BAKER, L. H., OPIPARI, M. I., WILSON, H., BOTTOMLEY, R. & COLTMAN, C. A., JR. […] Obstet. Gynecol., 52, 146. BARRANCO, S. C. […] Ed. Carter, Crooke & Umezawa. […]"}
{"substance": "bleomycin", "values": [{"measurement": "total plasma AUC for 6 days", "setting": "continuous i.p. infusion (osmotic minipump), 8 u/kg/day for 6 days", "value": 89.0, "unit": "mu.h/ml"}, {"measurement": "total 6-day plasma AUC", "setting": "intermittent i.p. bolus, 8 u/kg/day for 6 days, from data obtained on Day 5", "value": 90.8, "unit": "mu.h/ml"}, {"measurement": "terminal-phase plasma t1/2", "setting": "intermittent i.p. bolus, 8 u/kg/day, sampled 5-120 min after the dose on Day 5, single exponential fit", "value": 15, "unit": "min"}]}
